Laboratory results from ChEMBL document CHEMBL2331495, “Novel pyrazole derivatives as neutral CB₁ antagonists with significant activity towards food intake” (Eur J Med Chem, 2013).

By UniProt entry, the sequences of proteins in these tests, tags left out.
UniProt P47746, whole entry: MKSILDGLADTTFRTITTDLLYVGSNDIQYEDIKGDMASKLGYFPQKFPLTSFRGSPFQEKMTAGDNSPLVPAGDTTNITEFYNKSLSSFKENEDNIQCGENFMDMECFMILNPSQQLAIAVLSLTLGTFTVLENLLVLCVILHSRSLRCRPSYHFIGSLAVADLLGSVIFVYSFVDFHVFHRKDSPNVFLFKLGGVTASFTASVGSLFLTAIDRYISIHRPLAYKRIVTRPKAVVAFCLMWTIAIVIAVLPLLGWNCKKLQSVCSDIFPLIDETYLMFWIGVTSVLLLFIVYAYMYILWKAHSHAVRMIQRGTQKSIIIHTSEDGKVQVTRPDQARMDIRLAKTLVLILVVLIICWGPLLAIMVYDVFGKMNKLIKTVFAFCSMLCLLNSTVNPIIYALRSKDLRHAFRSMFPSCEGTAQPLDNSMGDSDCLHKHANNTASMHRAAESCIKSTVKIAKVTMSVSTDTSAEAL

Legend:
[1] = species on record: Mus musculus; assay: Selectivity ratio of Ki for CB1 receptor in CD1 mouse brain membrane without cerebellum to Ki for CB2 receptor in CD1 mouse spleen membrane; type: cell membranes
[2] = molecular target: Cannabinoid receptor 1 (Mus musculus, UniProt P47746); assay: Displacement of [3H]CP55940 from CB1 receptor in CD1 mouse brain membrane without cerebellum by liquid scintillation counting analysis; type: cell membranes

Cc1c(C(O)CC2CCCCC2)nn(-c2ccc(Cl)cc2Cl)c1-c1ccc(Cl)cc1 (racemic)
Ratio Ki [1]: 0.042
Ki [2]: 175 nM
